## Binding of CDR-mutated scFvs to a peptide of the spike HR2 region

Reference: Li et al. 2023, doi:10.1038/s41467-023-39022-2. File: FLAb, binding data.

Antigen: PDVDLGDISGINAS, a 14-residue peptide of the SARS-CoV-2 spike HR2 region.

Parent scFv Ab-14: VH joined to VL by three GGGGS repeats. Changes lie in the heavy chain CDRs alone.
VH: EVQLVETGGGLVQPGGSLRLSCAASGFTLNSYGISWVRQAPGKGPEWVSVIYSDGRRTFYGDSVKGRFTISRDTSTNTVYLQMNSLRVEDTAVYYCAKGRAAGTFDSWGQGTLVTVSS
VL: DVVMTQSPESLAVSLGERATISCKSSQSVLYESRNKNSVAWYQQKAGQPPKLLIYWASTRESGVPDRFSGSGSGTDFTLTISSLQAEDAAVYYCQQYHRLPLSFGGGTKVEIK

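Phage display of a naive human antibody library on the peptide gave the parent. The variants were designed computationally from a first round of random CDR variants and then made and measured. Several design methods are mixed in this list. The scFvs were displayed on barcoded MATa yeast, the peptide on MATalpha yeast. The frequency of each diploid, read from paired DNA barcodes, reflects how well the two displayed proteins bind. The ratio of observed to expected reads was calibrated, replicate by replicate, on BCL2-family standards whose Kd was known from biolayer interferometry. The assay was run in six technical replicates.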

Sequences are complete VH domains. This list holds designs with more than six substitutions. Scale: log10 of Kd in nM, estimated from mating counts; low values are strong binders. Averages over replicates are reported, and they cover detected replicates only. A pair that was not seen in any replicate is written "no signal"; this usually means weak binding, but a binder can also be missed. The range of this assay differs from that of the first round, and the authors advise against merging the two.

* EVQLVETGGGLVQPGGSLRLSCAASGKKLDEYGISWVRQAPGKGPEWVSVIYADGKRNFYSNSVKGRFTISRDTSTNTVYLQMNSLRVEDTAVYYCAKGQLAGGLFVWGQGTLVTVSS: no signal (0 of 6 replicates)
* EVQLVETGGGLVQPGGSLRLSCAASGFDLDEYGISWVRQAPGKGPEWVSVIYADGKRTAYSDSVKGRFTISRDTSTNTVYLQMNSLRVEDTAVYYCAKGNEAGTFDLWGQGTLVTVSS: -0.41 (6 of 6 replicates)
* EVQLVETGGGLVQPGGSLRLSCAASGFDIEEYGISWVRQAPGKGPEWVSVIYADGIRQAYKNDVKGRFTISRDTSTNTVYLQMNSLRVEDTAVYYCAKGTNVGRFSVWGQGTLVTVSS: 1.93 (1 of 6 replicates)
* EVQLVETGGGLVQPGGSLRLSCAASGFDLNEYGISWVRQAPGKGPEWVSVIYADGKRTFYTDSVKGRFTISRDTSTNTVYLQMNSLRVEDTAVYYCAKGGNAGTFDVWGQGTLVTVSS: -0.26 (6 of 6 replicates)
* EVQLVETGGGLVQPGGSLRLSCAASGFDLNEYGISWVRQAPGKGPEWVSVIYADGKRTAYSDSVKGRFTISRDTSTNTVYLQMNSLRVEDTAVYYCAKGNNAGTFDLWGQGTLVTVSS: -0.39 (6 of 6 replicates)
* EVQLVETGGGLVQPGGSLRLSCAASGADLNEYGISWVRQAPGKGPEWVSVIYADGDRKAFQPDVKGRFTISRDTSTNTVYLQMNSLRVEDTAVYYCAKGTNAGDFDIWGQGTLVTVSS: no signal (0 of 6 replicates)
* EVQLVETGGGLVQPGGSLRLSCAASGQDLNEYGISWVRQAPGKGPEWVSVIYADGLRTAYLQNVKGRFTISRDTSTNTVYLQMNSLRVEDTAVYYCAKGVNAGFDQYWGQGTLVTVSS: no signal (0 of 6 replicates)
* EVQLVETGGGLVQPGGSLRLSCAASGFNLDEYGISWVRQAPGKGPEWVSVIYADGRRTFYADSVKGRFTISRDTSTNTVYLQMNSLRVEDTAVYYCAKGQVAGTFDKWGQGTLVTVSS: -0.53 (6 of 6 replicates)
* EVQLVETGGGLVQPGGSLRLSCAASGFDLEEYGISWVRQAPGKGPEWVSVIYADGVRTAYADSVKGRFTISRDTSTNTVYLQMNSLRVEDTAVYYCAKGENAGTFDVWGQGTLVTVSS: -0.02 (6 of 6 replicates)
* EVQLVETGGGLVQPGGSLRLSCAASGFSLDEYGISWVRQAPGKGPEWVSVIYADGRRTFYIDSVKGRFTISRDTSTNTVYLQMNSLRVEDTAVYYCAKGETAGTFDSWGQGTLVTVSS: -0.44 (6 of 6 replicates)
* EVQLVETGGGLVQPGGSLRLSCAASGFQLDEVGISWVRQAPGKGPEWVSVIYADGIRRAYASKVKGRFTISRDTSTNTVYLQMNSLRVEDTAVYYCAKGGIGASFDLWGQGTLVTVSS: no signal (0 of 6 replicates)
* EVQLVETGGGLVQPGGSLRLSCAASGFDLDEYGISWVRQAPGKGPEWVSVIYADGMRTAYSDDVKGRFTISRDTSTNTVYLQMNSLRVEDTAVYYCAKGENAGTFDIWGQGTLVTVSS: -0.73 (5 of 6 replicates)
* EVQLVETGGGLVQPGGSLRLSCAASGFDINEYGISWVRQAPGKGPEWVSVIYADGMRQVYINKFKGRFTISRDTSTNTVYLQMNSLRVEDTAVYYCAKGDSGGIINFWGQGTLVTVSS: no signal (0 of 6 replicates)
* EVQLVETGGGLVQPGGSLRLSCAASGFDLNEYGISWVRQAPGKGPEWVSVIYADGMRTAYSDSVKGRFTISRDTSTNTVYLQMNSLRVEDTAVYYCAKGEQAGTFDLWGQGTLVTVSS: -0.01 (6 of 6 replicates)
* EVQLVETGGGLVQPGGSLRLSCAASGFDLDEYGISWVRQAPGKGPEWVSVIYADGQRTAYADKVKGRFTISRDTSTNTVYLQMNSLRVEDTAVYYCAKGNQAGTFDVWGQGTLVTVSS: -0.06 (6 of 6 replicates)
* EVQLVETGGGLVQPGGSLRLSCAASGFDLNEYGISWVRQAPGKGPEWVSVIYADGRRTAYSDSVKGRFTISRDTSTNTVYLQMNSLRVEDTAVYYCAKGHNAGTFDVWGQGTLVTVSS: -0.26 (6 of 6 replicates)
* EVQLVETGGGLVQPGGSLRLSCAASGFDLEEMGISWVRQAPGKGPEWVSVIYADGSRKKYQDAVKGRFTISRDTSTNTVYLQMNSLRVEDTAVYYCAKGHVSGDFDEWGQGTLVTVSS: no signal (0 of 6 replicates)
* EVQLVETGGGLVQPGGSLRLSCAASGFSLDEYGISWVRQAPGKGPEWVSVIYADGNRQEYIDAVKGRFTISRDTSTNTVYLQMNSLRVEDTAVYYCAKGNYGGDFNEWGQGTLVTVSS: 0.85 (1 of 6 replicates)
* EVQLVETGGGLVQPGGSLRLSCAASGFDLNEYGISWVRQAPGKGPEWVSVIYADGKRTAYADSVKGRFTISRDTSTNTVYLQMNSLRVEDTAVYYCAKGNVAGTFNVWGQGTLVTVSS: -0.53 (6 of 6 replicates)
* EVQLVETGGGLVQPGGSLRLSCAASGFDLNEYGISWVRQAPGKGPEWVSVIYADGMRTFYADDVKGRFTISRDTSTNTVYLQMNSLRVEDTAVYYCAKGENAGTFDVWGQGTLVTVSS: -0.04 (6 of 6 replicates)
* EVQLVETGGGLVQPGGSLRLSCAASGFDLNEYGISWVRQAPGKGPEWVSVIYADGRRTFYSDSVKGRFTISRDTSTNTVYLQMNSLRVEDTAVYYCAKGEAGGTFDVWGQGTLVTVSS: 0.32 (6 of 6 replicates)

The 3 strongest on average among those seen in every replicate, once more:

- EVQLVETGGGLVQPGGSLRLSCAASGFNLDEYGISWVRQAPGKGPEWVSVIYADGRRTFYADSVKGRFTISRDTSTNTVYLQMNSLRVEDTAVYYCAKGQVAGTFDKWGQGTLVTVSS = -0.53 (6 of 6 replicates)
- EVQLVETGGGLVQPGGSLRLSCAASGFDLNEYGISWVRQAPGKGPEWVSVIYADGKRTAYADSVKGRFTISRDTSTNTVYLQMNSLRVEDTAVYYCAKGNVAGTFNVWGQGTLVTVSS = -0.53 (6 of 6 replicates)
- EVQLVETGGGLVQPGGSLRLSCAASGFSLDEYGISWVRQAPGKGPEWVSVIYADGRRTFYIDSVKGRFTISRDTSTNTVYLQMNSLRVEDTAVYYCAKGETAGTFDSWGQGTLVTVSS = -0.44 (6 of 6 replicates)

Nonspecific signal, from three strains lacking the peptide, appeared in 1% of pairings of all heavy chain designs, centred on 2.08 (5% of these signals below 0.84); values are not corrected for it. The authors averaged sequences with at least three values out of six and counted those with two or fewer as poor binders. Of ten entries with the parent sequence, four were seen in most replicates (averages 0.34 to 2.37), three in one and three in none, so single entries are noisy.